Assay results published in ChEMBL document CHEMBL1145127 (J Med Chem, 2003).

Amino acid sequences for entries named in this document (tags omitted). A change or cut given only in a name is not applied to a line headed by its entry.
UniProt P27815: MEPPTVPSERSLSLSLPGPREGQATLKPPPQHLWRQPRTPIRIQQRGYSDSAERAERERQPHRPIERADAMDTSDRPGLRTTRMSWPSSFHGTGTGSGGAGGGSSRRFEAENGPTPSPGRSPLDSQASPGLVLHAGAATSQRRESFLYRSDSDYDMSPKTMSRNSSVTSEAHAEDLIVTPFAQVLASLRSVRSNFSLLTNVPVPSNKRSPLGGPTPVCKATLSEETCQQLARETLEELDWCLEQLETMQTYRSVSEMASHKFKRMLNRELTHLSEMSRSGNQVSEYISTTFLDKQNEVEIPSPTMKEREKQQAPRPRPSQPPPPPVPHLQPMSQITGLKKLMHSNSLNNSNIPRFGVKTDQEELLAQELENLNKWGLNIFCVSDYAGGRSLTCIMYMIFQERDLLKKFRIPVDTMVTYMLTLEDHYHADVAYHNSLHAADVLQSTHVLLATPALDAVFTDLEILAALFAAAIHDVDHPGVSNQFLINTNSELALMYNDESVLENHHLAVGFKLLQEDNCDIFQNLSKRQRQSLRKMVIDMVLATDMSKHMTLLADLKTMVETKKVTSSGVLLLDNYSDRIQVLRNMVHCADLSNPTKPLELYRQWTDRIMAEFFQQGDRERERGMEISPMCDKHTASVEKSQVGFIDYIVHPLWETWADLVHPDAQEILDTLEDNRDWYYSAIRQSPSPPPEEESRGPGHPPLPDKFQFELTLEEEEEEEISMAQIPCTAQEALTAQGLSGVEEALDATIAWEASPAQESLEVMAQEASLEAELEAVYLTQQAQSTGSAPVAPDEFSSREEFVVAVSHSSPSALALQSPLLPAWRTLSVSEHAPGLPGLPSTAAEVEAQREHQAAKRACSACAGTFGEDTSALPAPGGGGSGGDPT
UniProt Q08499: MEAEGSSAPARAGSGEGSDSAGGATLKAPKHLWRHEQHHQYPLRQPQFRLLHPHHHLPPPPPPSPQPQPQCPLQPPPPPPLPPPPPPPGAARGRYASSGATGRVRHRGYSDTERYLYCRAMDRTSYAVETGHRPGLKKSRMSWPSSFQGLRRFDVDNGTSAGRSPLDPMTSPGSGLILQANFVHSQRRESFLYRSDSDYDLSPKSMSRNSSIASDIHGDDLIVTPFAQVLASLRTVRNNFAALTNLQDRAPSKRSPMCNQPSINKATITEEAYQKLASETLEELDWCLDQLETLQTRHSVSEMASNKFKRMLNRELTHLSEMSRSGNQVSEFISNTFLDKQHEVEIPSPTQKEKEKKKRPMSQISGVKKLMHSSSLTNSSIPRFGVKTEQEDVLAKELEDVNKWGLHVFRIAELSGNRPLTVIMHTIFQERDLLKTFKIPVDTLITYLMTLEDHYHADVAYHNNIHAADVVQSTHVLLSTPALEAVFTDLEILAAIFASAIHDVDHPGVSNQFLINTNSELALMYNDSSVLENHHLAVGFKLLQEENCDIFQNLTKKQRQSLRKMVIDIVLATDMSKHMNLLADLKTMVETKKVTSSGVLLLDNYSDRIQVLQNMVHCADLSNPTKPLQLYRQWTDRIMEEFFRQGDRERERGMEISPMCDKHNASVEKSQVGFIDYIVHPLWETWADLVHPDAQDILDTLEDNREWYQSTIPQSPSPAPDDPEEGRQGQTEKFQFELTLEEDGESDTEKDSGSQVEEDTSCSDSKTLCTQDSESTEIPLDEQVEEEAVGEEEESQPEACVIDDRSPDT
UniProt Q07343: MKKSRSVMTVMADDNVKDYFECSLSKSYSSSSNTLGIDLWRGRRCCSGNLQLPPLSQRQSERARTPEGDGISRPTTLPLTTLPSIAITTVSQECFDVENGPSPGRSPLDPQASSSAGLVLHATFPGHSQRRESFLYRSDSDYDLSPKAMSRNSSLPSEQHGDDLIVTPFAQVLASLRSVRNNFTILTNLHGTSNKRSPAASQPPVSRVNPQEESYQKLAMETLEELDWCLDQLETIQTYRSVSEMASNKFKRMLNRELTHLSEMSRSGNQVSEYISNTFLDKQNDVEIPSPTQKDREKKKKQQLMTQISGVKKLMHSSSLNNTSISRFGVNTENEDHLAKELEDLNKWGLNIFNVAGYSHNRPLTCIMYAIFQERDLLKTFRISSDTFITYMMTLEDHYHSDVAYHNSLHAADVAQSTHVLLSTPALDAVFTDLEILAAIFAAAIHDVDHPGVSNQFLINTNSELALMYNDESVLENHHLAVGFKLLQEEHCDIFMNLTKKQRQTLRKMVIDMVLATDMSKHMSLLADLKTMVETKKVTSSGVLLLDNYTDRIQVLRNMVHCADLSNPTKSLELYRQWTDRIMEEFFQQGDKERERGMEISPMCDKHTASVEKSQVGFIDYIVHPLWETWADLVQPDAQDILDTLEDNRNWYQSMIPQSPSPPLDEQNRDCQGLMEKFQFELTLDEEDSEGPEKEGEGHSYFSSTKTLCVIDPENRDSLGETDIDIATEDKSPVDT
UniProt Q08493: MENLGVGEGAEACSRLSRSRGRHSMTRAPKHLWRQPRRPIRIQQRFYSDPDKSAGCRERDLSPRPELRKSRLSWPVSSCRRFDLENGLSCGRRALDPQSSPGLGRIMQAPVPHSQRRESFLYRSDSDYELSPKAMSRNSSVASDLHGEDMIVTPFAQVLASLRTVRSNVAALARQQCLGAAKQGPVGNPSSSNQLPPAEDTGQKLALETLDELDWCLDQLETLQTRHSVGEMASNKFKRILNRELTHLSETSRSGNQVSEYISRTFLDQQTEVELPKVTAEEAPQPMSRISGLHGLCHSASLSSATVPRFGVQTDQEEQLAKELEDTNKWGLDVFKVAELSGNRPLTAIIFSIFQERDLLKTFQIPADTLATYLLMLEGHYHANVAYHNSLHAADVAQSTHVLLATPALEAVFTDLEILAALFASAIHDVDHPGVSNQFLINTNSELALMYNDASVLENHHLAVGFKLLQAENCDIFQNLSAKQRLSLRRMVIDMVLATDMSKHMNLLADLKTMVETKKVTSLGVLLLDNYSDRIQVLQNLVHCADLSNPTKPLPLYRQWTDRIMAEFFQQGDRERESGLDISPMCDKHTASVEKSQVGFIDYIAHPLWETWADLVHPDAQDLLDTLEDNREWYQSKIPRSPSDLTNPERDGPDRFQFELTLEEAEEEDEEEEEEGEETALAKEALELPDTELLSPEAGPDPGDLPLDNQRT

Molecular target: Phosphodiesterase 4 (Homo sapiens, UniProt P27815+Q08499+Q07343+Q08493)
Assay: Inhibition of Human recombinant PDE4 (Phosphodiesterase 4)
Assay type: protein assay

**Q.** For `CN1CC(=O)N2[C@H](c3ccc4c(c3)OCO4)c3[nH]c4ccccc4c3C[C@@H]2C1=O` (stereo in doubt; 12a), which IC50 is on record?
**A.** > 10 µM
